Assay [1] addresses human kappa opioid receptor (hKOR) (Homo sapiens, UniProt P41145). As to conditions: read-out: hKOR EC50; transfected HEK-293 cells, luciferase reporter. A general note: A reporter such as luciferase makes a cellular process visible.
Assay [2] concerns the target mouse kappa opioid receptor (mKOR) (Mus musculus, UniProt P33534). The assay can be described thus: Inhibition of forskolin-stimulated cAMP production in R1.G1 cells. In kind it is cell-based. As to conditions: read-out: mKOR EC50. Background: Cyclic AMP is a second messenger, typically raised through Gs and lowered through Gi signalling.

By UniProt entry, the sequences of proteins in these tests, tags left out. Where a name states a change or a piece, a line headed by the entry shows the natural chain unless it says otherwise.
UniProt P41145: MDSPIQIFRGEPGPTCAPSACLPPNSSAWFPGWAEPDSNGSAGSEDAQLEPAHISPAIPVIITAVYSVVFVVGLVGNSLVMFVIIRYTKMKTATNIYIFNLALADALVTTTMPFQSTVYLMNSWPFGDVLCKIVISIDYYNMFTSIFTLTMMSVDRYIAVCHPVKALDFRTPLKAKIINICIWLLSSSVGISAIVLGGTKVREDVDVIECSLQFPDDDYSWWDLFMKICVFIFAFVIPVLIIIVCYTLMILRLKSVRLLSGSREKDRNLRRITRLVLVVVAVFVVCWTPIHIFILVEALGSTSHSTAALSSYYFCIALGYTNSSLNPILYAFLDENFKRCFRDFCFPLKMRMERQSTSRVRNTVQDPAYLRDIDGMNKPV
UniProt P33534: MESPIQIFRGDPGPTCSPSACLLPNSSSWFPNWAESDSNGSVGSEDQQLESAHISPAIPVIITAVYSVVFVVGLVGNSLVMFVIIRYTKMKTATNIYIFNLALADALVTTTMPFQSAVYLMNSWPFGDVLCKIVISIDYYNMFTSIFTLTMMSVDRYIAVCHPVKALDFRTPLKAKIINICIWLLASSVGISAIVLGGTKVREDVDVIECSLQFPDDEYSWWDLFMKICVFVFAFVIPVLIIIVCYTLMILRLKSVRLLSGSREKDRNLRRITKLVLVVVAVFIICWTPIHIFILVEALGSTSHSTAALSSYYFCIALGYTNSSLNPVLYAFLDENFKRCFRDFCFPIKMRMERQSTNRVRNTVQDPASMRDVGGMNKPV

With `CC(C)C[C@@H](NC(=O)[C@@H](Cc1ccccc1)NC(=O)[C@H](N)Cc1ccccc1)C(=O)N[C@H](CCCCN)C(=O)N1CCC(n2cc(-c3ccccc3)[nH]c2=O)CC1` [Compound (30)], in assay [1], the EC50 (commonly the midpoint of the concentration-response curve) was determined as 11.6 pM.
In the case of `CC(C)C[C@@H](NC(=O)[C@@H](Cc1ccccc1)NC(=O)[C@H](N)Cc1ccccc1)C(=O)N[C@H](CCCCN)C(=O)N1CCC(n2c(=O)[nH]c3cc(Cl)ccc32)CC1` [Compound (28), D-Phe-D-Phe-D-Leu-D-Lys-[5-chloro-1-(piperidin-4-yl)-1H-benzo[d]imidazol-2(3)H-one amide]], the EC50 turned out to be 8.3 pM in assay [1] and 58.2 pM in assay [2].
With `CC(C)C[C@@H](NC(=O)[C@@H](Cc1ccccc1)NC(=O)[C@H](N)Cc1ccccc1)C(=O)N[C@H](CCCCN)C(=O)N1CCC(N2C(=O)Cc3ccccc32)CC1`, the concentration giving a half-maximal response (EC50) in assay [1] came out at 5 pM; in assay [2], 48.5 pM.
`CC(C)C[C@@H](NC(=O)[C@@H](Cc1ccccc1)NC(=O)[C@H](N)Cc1ccccc1)C(=O)N[C@H](CCCCN)C(=O)N1CCC(n2c(=O)[nH]c3ccccc32)CC1` [Compound (36), D-Phe-D-Phe-D-Leu-D-Lys-[1-(piperidin-4-yl)-1H-benzo[d]imidazol-2(3H)-one amide]]: the figures for the EC50 in assay [1] and in assay [2] were 5.2 pM and 23.4 pM, respectively.
